Experimental data taken from patent publication US5824696A, “Medicaments” (SmithKline Beecham Corporation, priority 1993, dated 1998).

Biological target: T1, angiotensin receptors in human synovium (Homo sapiens, UniProt P30556)
T1 construct: Human knee synovium was collected at surgery from patients with osteoarthritis or rheumatoid arthritis; from tissue; host or cells: human knee synovium cryostat sections (osteoarthritis, rheumatoid arthritis, chondromalacia patellae)
Experiment: Inhibition of [125I](Sar1, Ile8)AII binding to human synovium, quantitative receptor autoradiography
Design: Binding of [125I](Sar1, Ile8) angiotensin II in the presence of antagonist: unit not given here
Settings: for Binding of [125I](Sar1, Ile8) angiotensin II in the presence of antagonist: 10 μM antagonist; for nHill values: osteoarthritic synovium
Experimental: Human knee synovium was collected at surgery from patients with osteoarthritis or rheumatoid arthritis undergoing total knee replacement and patients with chondromalacia patellae undergoing carbon fibre resurfacing of articular cartilage. Tissue samples were immediately embedded in Tissue-Tek (Miles Inc., Elkhart, Ind., USA) and frozen to cork mounts in melting isopentane without prior fixation. Specimens were stored at -40° C. until use. […] thick sections were cut in a cryostat and thaw mounted onto Vectabond™ (Vector Laboratories, Peterborough, U.K.) treated slides, air dried and used immediately, or stored at -20° C. with silica gel for up to 5 days until use.
[…] Excess buffer was removed and sections were incubated for 90 minutes with ligand in buffer B (buffer A plus 1% bovine serum albumin). […] Except where stated, incubations were performed at 22° C.
Films were developed in Kodak D9 for 3 minutes at 15° C. […] Synovial structures were identified, where necessary, by comparison of films with tissue sections counterstained with haematoxylin and eosin. Tissue structures (blood vessels, lining cells and regions of subintimal stroma displaying specific binding) were each delineated interactively. Binding was quantified on the 20 blood vessels in each section with the most dense specific binding.
Specific binding was defined as total minus non-specific binding. Characterisation of specific binding was performed on samples of synovium from patients with osteoarthritis.
Kinetic and equilibrium constants were derived from specific binding values by iterative non-linear regression assuming single site models using GraphPAD Inplot4 (San Diego). […] Values for binding inhibition constants (Ki) and HIll coefficients (nHill) were derived by fitting to sigmoid curves.

Inhibition of specific [125I](Sar1, Ile8)AII binding to each structure (10 μM, synovium from patients with osteoarthritis and rheumatoid arthritis): completely inhibited | Binding of [125I](Sar1, Ile8) angiotensin II in the presence of antagonist (blood vessels, OA, total 7.9, nonspecific 2.4): 2.9 | Binding of [125I](Sar1, Ile8) angiotensin II in the presence of antagonist (blood vessels, RA, total 14, nonspecific 2.6): 2.8 | nHill values (blood vessels): 0.6 | Inhibition of binding of [125I](Sar1, Ile8)AII to microvessels, lining cells and stroma (inflamed human synovium): potently and completely inhibited | Binding of [125I](Sar1, Ile8) angiotensin II in the presence of antagonist (lining cells, OA, total 3.6, nonspecific 1.6): 1.7 | Binding of [125I](Sar1, Ile8) angiotensin II in the presence of antagonist (lining cells, RA, total 5.7, nonspecific 1.7): 1.8 | nHill values (lining cells): 0.9 | Binding of [125I](Sar1, Ile8) angiotensin II in the presence of antagonist (stroma, OA, total 2.4, nonspecific 1.5): 1.5 | Binding of [125I](Sar1, Ile8) angiotensin II in the presence of antagonist (stroma, RA, total 3.0, nonspecific 1.6): 1.5 | nHill values (stroma): 0.6
Structure (SMILES): CCCCc1nc(Cl)c(CO)n1Cc1ccc(-c2ccccc2-c2nn[nH]n2)cc1 [Losartan]
